We go through one substance from US20210040485A1, “Elimination or Neutralization of Endogenous High Molecular Weight FGF-2 Increases Cardiac Resistance to Doxorubicin-Induced Damage” (University of Manitoba, priority 2018, published 2021).

For series [1], the system named is FGF2(WT), FGF2(−), FGF2(Hi), FGF2(Lo) mice. As to conditions: mouse, in vivo.
Series [2] has the same test system. Kind of series: In vivo model for acute Doxorubicin effects: echocardiography (FS, EF, LVEDD, LVESD, PWT, HR) and heart weight/body weight. The settings on record: day 10 post-Dox, mean ± SD.
Series [3] has the same test system. Kind of series: In vivo model for acute Doxorubicin effects: mortality and body weight. Further details: species or system mouse. As to conditions: male FGF2(−) mice, 5-6 days post Dox. An excerpt: In vivo model for acute Doxorubicin effects.
In vivo model for acute cardiotoxic effects. […] Hearts were then collected for biochemical analyses.

The subject of series [4] is neonatal rat ventricular cardiomyocytes co-cultured with MEFs. Kind of series: Mitochondrial permeability transition pore (Calcein-AM/Cobalt chloride) assay in MEF-cardiomyocyte co-cultures. The settings on record: co-cultures with FGF2(Lo)-MEFs compared to co-cultures with the other MEFs. It is filed as cell-based. The procedure:
MEF-Cardiomyocyte co-cultures. Cardiomyocytes were plated at a density of 5×10^4 cells/cm^2 on collagen (Corning, #354236) coated glass coverslips in the presence of 20% fetal bovine serum (FBS) in Hams F-10 culture medium; 24 hours later the media was changed and MEFS from FGF2(WT), FGF2(−), FGF2(Hi), and FGF2(Lo) strains (2×10^4/cm^2) were added to the cultures in low-serum medium (0.5% FBS, 1% insulin, 1% transferrin/selenium, and 1% ascorbic acid) in Dulbecco's modified Eagle's medium (DMEM). After 48 hours, co-cultures were incubated with low serum medium containing 0.5 μM of Dox or saline. Conditioned media were collected 24 h later, and stored at −80° C. Cells attached on coverslips were used for the Calcein-AM/Cobalt chloride mPTP assay.
Primary mouse embryonic fibroblasts (MEFs)-r-cardiomyocyte co-cultures. MEFs were isolated as described (30). […]
Mitochondrial permeability transition pore (mPTP) assay. […] Image J software was used to measure individual cell fluorescence intensity of Calcein-AM (green). […]

With Doxorubicin, the “decrease in ejection fraction (EF), maximum” value in series [1] is reported as 10%. In addition, the “effect on ejection fraction (EF)” value in series [1] is “did not show any decrease”. Also, the “severity of FS decrease relative to FGF2(WT) group” value in series [1] was greater than 2 fold. Besides, the Heart weight/body weight is 0.44 ± 0.03 × 10^−2 in series [2] (FGF2(Lo) female mice), 0.43 ± 0.04 × 10^−2 in series [2] (FGF2(Lo) male mice), 0.43 ± 0.02 × 10^−2 in series [2] (FGF2(WT) female mice) and 0.44 ± 0.06 × 10^−2 in series [2] (FGF2(WT) male mice). Also, the mortality in series [3] is given as 40-70%. In series [4], the “relative intensity of calcein fluorescence post-Dox” value was “significantly higher”.
